Test results from ChEMBL document CHEMBL1800055, “Orally active MMP-1 sparing α-tetrahydropyranyl and α-piperidinyl sulfone matrix metalloproteinase (MMP) inhibitors with efficacy in cancer, arthritis, and cardiovascular disease” (J Med Chem, 2010).

Molecular target: Collagenase 3 (Homo sapiens, UniProt P45452)

Compound	IC50 [nM]
O=C(NO)C1(S(=O)(=O)c2ccc(Oc3ccncc3)cc2)CCOCC1	1
O=C(NO)C1(S(=O)(=O)c2ccc(Oc3ccc(OC(F)(F)F)cc3)cc2)CCN(C2CC2)CC1	0.1
